Experimental data taken from ChEMBL document CHEMBL4033683, “Dual functional small molecule fluorescent probes for image-guided estrogen receptor-specific targeting coupled potent antiproliferative potency for breast cancer therapy” (Bioorg Med Chem, 2017).

Sequences of proteins named here, by UniProt entry; tags and fusion partners are left off.
UniProt P03372, whole entry: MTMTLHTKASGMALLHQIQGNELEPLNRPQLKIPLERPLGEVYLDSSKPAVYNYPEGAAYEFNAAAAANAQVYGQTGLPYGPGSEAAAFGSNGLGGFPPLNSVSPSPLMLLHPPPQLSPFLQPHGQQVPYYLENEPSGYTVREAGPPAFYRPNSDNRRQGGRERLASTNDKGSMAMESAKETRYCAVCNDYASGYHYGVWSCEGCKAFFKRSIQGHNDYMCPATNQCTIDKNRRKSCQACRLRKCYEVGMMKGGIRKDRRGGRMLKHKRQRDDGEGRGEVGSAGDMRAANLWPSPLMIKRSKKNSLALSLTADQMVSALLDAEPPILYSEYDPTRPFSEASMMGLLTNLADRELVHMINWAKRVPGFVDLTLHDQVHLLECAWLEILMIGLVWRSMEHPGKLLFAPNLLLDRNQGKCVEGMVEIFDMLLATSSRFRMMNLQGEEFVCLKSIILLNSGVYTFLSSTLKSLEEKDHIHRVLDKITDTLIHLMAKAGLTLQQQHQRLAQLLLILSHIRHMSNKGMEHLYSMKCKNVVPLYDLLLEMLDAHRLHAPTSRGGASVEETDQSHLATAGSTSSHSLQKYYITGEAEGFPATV
UniProt Q92731, whole entry: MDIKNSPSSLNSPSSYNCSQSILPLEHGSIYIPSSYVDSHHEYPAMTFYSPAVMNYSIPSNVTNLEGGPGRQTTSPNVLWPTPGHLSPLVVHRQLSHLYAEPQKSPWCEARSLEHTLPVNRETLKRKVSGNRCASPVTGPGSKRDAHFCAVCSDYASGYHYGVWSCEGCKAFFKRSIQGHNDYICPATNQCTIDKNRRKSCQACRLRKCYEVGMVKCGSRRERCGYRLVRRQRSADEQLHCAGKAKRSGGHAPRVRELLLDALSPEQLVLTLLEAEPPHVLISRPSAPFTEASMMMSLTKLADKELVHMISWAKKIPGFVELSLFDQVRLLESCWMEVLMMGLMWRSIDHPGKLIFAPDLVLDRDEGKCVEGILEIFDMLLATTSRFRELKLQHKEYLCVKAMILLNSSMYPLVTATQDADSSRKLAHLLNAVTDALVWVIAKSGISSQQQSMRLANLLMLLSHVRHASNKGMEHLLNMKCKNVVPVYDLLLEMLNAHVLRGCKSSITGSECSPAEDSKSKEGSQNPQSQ

How the values were obtained:
Estrogen receptor = Estrogen receptor (Homo sapiens, UniProt P03372); assay: Displacement of [3H]-estradiol from full length human ERalpha expressed in insect cells after 18 to 24 hrs by radiometric method relative to estradiol
Estrogen receptor beta = Estrogen receptor beta (Homo sapiens, UniProt Q92731); assay: Displacement of [3H]-estradiol from full length human ERbeta expressed in insect cells after 18 to 24 hrs by radiometric method relative to estradiol
Homo sapiens = species on record: Homo sapiens; assay: Selectivity ratio of IC50 for full length human ERalpha expressed in insect cells to IC50 for full length human ERbeta expressed in insect cells

Compound | relative binding affinity (RBA) (Estrogen receptor) | relative binding affinity (RBA) (Estrogen receptor beta) | Ratio IC50 (Homo sapiens)
CCc1c(-c2ccc(O)c(F)c2)c(=O)oc2cc(O)ccc12 | 0.158 | 0.102 | 1.54
Cc1c(-c2ccc(O)cc2Cl)c(=O)oc2cc(O)ccc12 | 0.025 | 0.013 | 1.92
O=c1oc2cc(O)ccc2cc1-c1ccc(O)cc1 | 0.025 | 0.08 | 0.31
CCc1c(-c2ccc(O)cc2Cl)c(=O)oc2cc(O)ccc12 | 1.93 | 0.817 | 2.36
Cc1cc(O)ccc1-c1c(C)c2ccc(O)cc2oc1=O | 0.064 | 0.017 | 3.76
O=c1oc2cc(O)ccc2c(-c2ccc(O)c(F)c2)c1-c1ccc(O)c(F)c1 | 3.23 | 1.97 | 1.63
O=c1oc2cc(O)ccc2cc1-c1ccc(O)c(F)c1 | 0.02 | 0.09 | 0.22
